Inhibition data for 100 compounds are collected here from PubChem BioAssay AID2099 (Broad Institute, 2009).

The chains behind the UniProt entries cited, without tags or fusion partners. Where a name states a change or a piece, a line headed by the entry shows the natural chain unless it says otherwise.
UniProt Q9H3R0: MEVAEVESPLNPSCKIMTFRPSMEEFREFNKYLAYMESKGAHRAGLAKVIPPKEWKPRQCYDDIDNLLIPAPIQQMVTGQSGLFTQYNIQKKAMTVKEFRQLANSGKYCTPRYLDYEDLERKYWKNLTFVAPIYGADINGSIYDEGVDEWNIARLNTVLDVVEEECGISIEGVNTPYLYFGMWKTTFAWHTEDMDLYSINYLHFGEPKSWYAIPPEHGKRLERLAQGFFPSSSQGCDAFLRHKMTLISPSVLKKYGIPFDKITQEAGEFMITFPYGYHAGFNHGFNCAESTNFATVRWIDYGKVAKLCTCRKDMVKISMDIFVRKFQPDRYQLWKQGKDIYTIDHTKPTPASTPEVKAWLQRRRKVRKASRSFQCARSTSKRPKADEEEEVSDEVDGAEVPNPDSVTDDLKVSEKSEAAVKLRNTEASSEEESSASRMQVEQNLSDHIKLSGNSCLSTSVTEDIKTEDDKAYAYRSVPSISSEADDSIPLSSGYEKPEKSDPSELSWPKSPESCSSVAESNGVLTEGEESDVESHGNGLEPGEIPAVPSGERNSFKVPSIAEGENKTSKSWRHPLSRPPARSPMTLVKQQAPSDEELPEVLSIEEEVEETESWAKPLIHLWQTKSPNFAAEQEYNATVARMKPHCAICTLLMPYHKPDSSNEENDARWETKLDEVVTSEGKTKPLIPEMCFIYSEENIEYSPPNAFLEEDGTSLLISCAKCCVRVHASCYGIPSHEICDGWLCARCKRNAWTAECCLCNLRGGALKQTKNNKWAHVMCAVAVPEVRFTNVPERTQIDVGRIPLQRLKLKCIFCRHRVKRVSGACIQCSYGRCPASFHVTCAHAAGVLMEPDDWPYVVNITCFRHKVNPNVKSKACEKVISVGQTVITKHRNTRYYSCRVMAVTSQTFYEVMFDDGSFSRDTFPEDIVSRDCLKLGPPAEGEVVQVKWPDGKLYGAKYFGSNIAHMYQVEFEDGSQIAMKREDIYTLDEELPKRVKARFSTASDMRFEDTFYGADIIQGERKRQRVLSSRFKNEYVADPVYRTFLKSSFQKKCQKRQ

This is a selection; strong and weak results do not stand in their true shares. The source made the active and inactive calls.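 How the source made its calls: active means more than half of a compound's replicate wells show inhibition beyond 50%, single wells judged on their own value; inconclusive means some, but no more than half, of replicates pass 50% inhibition; inactive means no replicate passes 50% inhibition.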

What is called inhibition is the drop in the measured response relative to a control, in per cent.

This experiment concerns the target Lysine-specific demethylase 4C (Homo sapiens) (UniProt Q9H3R0). The experiment in a line: JMJD2C H3K9me3 demethylation blockers – biochemical, fluorescence, DELFIA europium, primary screen (AID 2099).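 Further: signal counts dimethyl H3K9 product captured on neutravidin plate; 0% = median of DMSO wells and 100% = 0.3 times that DMSO median.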 The settings on record: GST-JMJD2C(1-420) H3K9me3 demethylation, at 2.35 µM, active compounds read high.
As for `O=C(OC1CN2CCC1CC2)c1ccc(Cl)cc1` (stereo not given), the inhibition is inactive: 6.87%.
The value for `O=[As](O)(O)c1cccnc1` was inactive: -3.63%; that for `COc1cc(C(=O)NCC2(N3CCOCC3)CCCCC2)cc(Cl)c1OC(C)C` was inactive: -8.48%.
In the case of `CS(=O)(=O)c1ccc(Cl)c(NC(=O)COC(=O)C(O)(c2ccccc2)c2ccccc2)c1`, the inhibition was inactive: 39.2%.
As to `Cc1cccc(OCC(=O)OC2CN3CCC2CC3)c1` (stereo not given), the inhibition is inactive: -9.59%.
Consider `O=[As](O)(c1cccc(O)c1)c1cccc(O)c1`, for which the inhibition is inactive: 13.6%.
In the case of `Cc1ccc(NCCc2c([N+](=O)[O-])cc([N+](=O)[O-])cc2[N+](=O)[O-])cc1` it was inactive: 1.57%; in that of `Nc1cccc2c([As](=O)(O)O)cccc12`, inactive: 3.17%; in that of `CCCOP(=S)(Nc1nc(N)cc(=O)[nH]1)OCCC`, inactive: 10.4%.
As for `COc1cc(C2NCCC3(OCCO3)C2(C)C)cc(OC)c1OC` (stereo not given), the inhibition was inactive: 71.8%.
`CCOP(=O)(Nc1cccc2ccccc12)OCC`: the inhibition was inactive: -5.22%.
Take `CCOP1(=S)c2c(C)nn(CCC#N)c2N=C(c2ccccc2F)N1C` (stereo not given): the inhibition was inactive: -1.63%.
Take `O=P(Nc1nccs1)(Oc1ccccc1)Oc1ccccc1`: the inhibition was inactive: 0.298%.
On to `O=P(Nc1nccs1)(c1ccccc1)c1nc2ccccc2s1` (stereo not given), for which the inhibition was inactive: -1.7%.
As for `CS(=O)(=O)c1cc([N+](=O)[O-])c2no[n+]([O-])c2c1`, the inhibition was inactive: -0.779%.
With `O=C(O)COc1ccc([As](=O)(O)O)cc1[N+](=O)[O-]`, the inhibition is inactive: -2.07%.
For `Nc1ccccc1[As](=O)(O)c1ccccc1`, the inhibition is inactive: 22.8%.
Consider `N#CCCN(C(=O)COC(=O)C(O)(c1ccccc1)c1ccccc1)c1ccc(F)cc1`, for which the inhibition was inactive: -0.18%.
For `CCOP1(=S)c2c(C)nn(CCC#N)c2N=C(c2ccc(F)cc2)N1C` (stereo not given), the inhibition is inactive: 2.64%.
Regarding `CN(C(=O)Cc1ccccc1)[C@@H]1CC[C@]2(CCCO2)C[C@H]1N1CCCC1`, the inhibition was inactive: -2.49%.
With `O=[N+]([O-])c1ccc2c(c1)nnn2O`, the inhibition was inactive: -13.6%.
Turning to `CN(C)C(=O)c1cc([N+](=O)[O-])cc2c1-c1c(cc([N+](=O)[O-])cc1[N+](=O)[O-])C2=O`, the inhibition was inactive: -0.101%.
In the case of `CN(C(=O)Cc1ccc(Cl)c(Cl)c1)[C@H]1CC[C@@]2(CCCO2)C[C@@H]1N1CCCC1`, the inhibition was inactive: 8.45%.
On to `Cc1nn(-c2ccccc2)c2c1P(=O)(N1CCOCC1)N(C)C(c1ccccc1)=N2` (stereo not given), for which the inhibition is inactive: 135%.
`Cc1ccc(C(=O)OC2CN3CCC2CC3)cc1` (stereo not given): the inhibition is inactive: -11.4%.
For `CC1CCC(C(C)C)C(OP(=O)(Nc2ccccn2)c2ccccc2)C1` (stereo not given), the inhibition was inactive: -3.37%.
Regarding `CN(C)C1(CNC(=O)c2ccc(S(C)(=O)=O)cc2)CCCCC1`, the inhibition was inactive: 2.33%.
Regarding `O=C(/C=C/c1ccccc1)OC1CN2CCC1CC2` (stereo not given), the inhibition is inactive: -3.28%.
Take `O=P1(Nc2ncccn2)COc2ccccc2OC1`: the inhibition is inactive: 11.8%.
`Nc1cccc([As](=O)(O)c2ccccc2)c1`: the inhibition is inactive: -6.92%.
`Cc1ccc(OCC(=O)OC2CN3CCC2CC3)cc1` (stereo not given): the inhibition is active: 55%.
The value for `O=[As](O)(c1cccs1)c1cccs1` was inactive: -5.63%.
In the case of `NS(=O)(=O)c1cccc(NC(=O)COC(=O)C(O)(c2ccccc2)c2ccccc2)c1`, the inhibition is inactive: -2.23%.
Take `O=P1(Nc2ccc(Br)cn2)COc2ccccc2OC1`: the inhibition was inactive: 8.06%.
On to `CCC1=CC2Cc3nc4ccc(Cl)cc4c(N)c3C(C1)C2` (stereo not given), for which the inhibition is inactive: -5.41%.
`O=P1(Nc2ccccn2)COc2ccccc2OC1`: the inhibition is inactive: -10.7%.
As for `CCOP(=O)(NC(=NC(C)c1ccccc1)NC(C)c1ccccc1)OCC` (stereo not given), the inhibition was inactive: -17.4%.
For `CN(CCCl)Cc1cc(Cl)c(NC2=NCCN2)c(Cl)c1`, the inhibition was inactive: 5.41%.
The value for `Clc1n[nH]nc1-c1nn[nH][15n]1` was inactive: 9.37%; that for `CC(C)(C)C(=O)NC(Sc1ncccn1)C(Cl)(Cl)Cl` (stereo not given) was inactive: 4.11%; that for `COc1ccccc1CNC(=O)COC(=O)C(O)(c1ccccc1)c1ccccc1` was inactive: 0.0574%.
For `CN(C(=O)Cc1ccc(Cl)c(Cl)c1)[C@@H]1CCCC[C@H]1N1CCCC1`, the inhibition was inactive: 7.93%.
Consider `CC(C)/C=N\N=C(\N)N[N+](=O)[O-]`, for which the inhibition is inactive: -2.05%.
In the case of `O=[As](O)(c1ccccc1Br)c1ccccc1Br` it was inactive: 5.21%; in that of `CC1(CBr)Cn2c(nc3ccccc3c2=O)S1` (stereo not given), inactive: 2.25%; in that of `COP1(=S)c2c(C)nn(CCC#N)c2N=C(c2ccc(F)cc2)N1C` (stereo not given), inactive: -1.14%.
As for `O=C(COc1ccccc1)OC1CN2CCC1CC2` (stereo not given), the inhibition is inactive: 11.3%.
Take `O=C(Nc1ccncc1[N+](=O)[O-])c1ccc([N+](=O)[O-])cc1[N+](=O)[O-]`: the inhibition was inactive: -16.3%.
On to `O=C(OC1CN2CCC1CC2)c1cccc([N+](=O)[O-])c1` (stereo not given), for which the inhibition is inactive: 3.68%.
For `CCOC(=O)c1ccc(NC(=O)C(C)(CCl)SC)cc1` (stereo not given), the inhibition is inactive: 27.6%.
Turning to `CCC(C)N(CC(C)C)C(=S)SC(NC(C)=O)C(Cl)(Cl)Cl` (stereo not given), the inhibition was inactive: 21.5%.
Turning to `CCOC(=O)Nc1ccc([As](=O)(O)O)c(O)c1`, the inhibition is inactive: 4.94%.
In the case of `CCCCOc1ccc(C(=O)NCC2(N3CCCCC3)CCCCC2)cc1OC` it was inactive: -10.3%.
`Cc1cc(SC(NC(=O)c2ccccc2)C(Cl)(Cl)Cl)nc(C(C)C)n1` (stereo not given): the inhibition was inactive: 3.16%.
`CCOC(=O)Nc1cccc([As](=O)(O)O)c1`: the inhibition is inactive: -2.03%.
As to `Cc1cc(SC(NC=O)C(Cl)(Cl)Cl)ncn1` (stereo not given), the inhibition is inactive: 9.23%.
Take `O=P(Nc1ccccn1)(c1cccc2ccccc12)c1cccc2ccccc12`: the inhibition was inactive: 9.71%.
As for `O=[N+]([O-])c1ccc(Nc2ccc(Oc3ccc([N+](=O)[O-])cc3[N+](=O)[O-])cc2)c([N+](=O)[O-])c1`, the inhibition was inactive: -1.6%.
For `O=[As](O)(c1ccc(O)cc1)c1ccccc1O`, the inhibition was inactive: 8.47%.
In the case of `COc1cc(C(=O)NCC2(N3CCOCC3)CCCCC2)ccc1OCC(C)C` it was inactive: 5.7%.
For `Cc1ccc(OP(=O)(Nc2ccc([N+](=O)[O-])cn2)Oc2ccc(C)cc2)cc1`, the inhibition is inactive: 2.97%.
For `Cc1ccc2nc3c(c(C)c2c1)CC(C(Cl)Cl)S3` (stereo not given), the inhibition is inactive: 6.73%.
As to `ClCCSc1nnc(-c2cccnc2)o1`, the inhibition is inactive: 6.16%.
Regarding `CC(C)c1ccc(OP(=O)(Nc2ccccn2)Oc2ccccc2F)cc1` (stereo not given), the inhibition is inactive: 1.53%.
For `CC(C)NC(=O)NP(=O)(Oc1ccccc1)Oc1ccccc1`, the inhibition was inactive: -15.8%.
On to `CCN(CC)C(=S)SC(NC=O)C(Cl)(Cl)Cl` (stereo not given), for which the inhibition was inactive: -9.19%.
In the case of `O=[N+]([O-])c1cc([N+](=O)[O-])c(-c2ccn[nH]2)s1`, the inhibition was inactive: 0.614%.
For the compound `Cc1c2c(nc3ccccc13)SC(C(Cl)Cl)C2` (stereo not given), the inhibition is inactive: 0.498%.
Consider `O=C(OC1CN2CCC1CC2)C12CC3CC(CC(C3)C1)C2` (stereo not given), for which the inhibition was inactive: -8.2%.
As to `Cc1cc(=O)[nH]c(N[N+](=O)[O-])n1`, the inhibition was inactive: -7.05%.
Consider `COc1ccc2nc(NP(=O)(c3ccccc3)c3ccccc3)sc2c1`, for which the inhibition was inactive: -9.04%.
Regarding `COc1cc(I)ccc1[As](=O)(O)O`, the inhibition is inactive: 2.55%.
Consider `COc1ccc(N/C(=N/P(=O)(N2CCOCC2)N2CCOCC2)N2CCOCC2)cc1`, for which the inhibition was inactive: -0.831%.
On to `CN(C(=O)Cc1ccc(Cl)c(Cl)c1)[C@H]1CCCC[C@H]1N1CCCC1`, for which the inhibition is inactive: -0.212%.
With `Cc1ccc(N/C(=N/P(=O)(N2CCOCC2)N2CCOCC2)N2CCOCC2)cc1`, the inhibition was inactive: -0.0545%.
In the case of `NC(=O)c1cc([N+](=O)[O-])cc([N+](=O)[O-])c1N`, the inhibition was inactive: -0.725%.
Consider `CN1CCCC(OC(=O)C(c2ccccc2)c2ccccc2)C1` (stereo not given), for which the inhibition was inactive: -29.1%.
In the case of `Clc1ccc(Cl)c(NC2=NCC(CBr)S2)c1` (stereo not given) it was inactive: -139%; in that of `COc1ccccc1OP(=O)(Nc1ccc(C)cn1)Oc1ccccc1OC`, inactive: 1.26%; in that of `Cc1ccc(OP(=O)(Nc2nccs2)Oc2ccc(C)cc2)cc1`, inactive: -4.55%.
In the case of `Oc1ccccc1CNc1ccccn1` it was inactive: -0.53%; in that of `O=C(NC(Sc1ccncn1)C(Cl)(Cl)Cl)c1ccccc1` (stereo not given), inactive: 3.13%; in that of `Cc1c2non([O-])c-2c(C)[n+](=O)[n+]1[O-]`, inactive: -3.59%.
`Nc1cc(N)c2nonc2c1[N+](=O)[O-]`: the inhibition was inactive: 28.4%.
On to `CC(C)CC(=O)NC(Sc1ccc(Cl)cc1)C(Cl)(Cl)Cl` (stereo not given), for which the inhibition was inactive: -4.56%.
The value for `O=P(Nc1nc2ccc(Cl)cc2s1)(c1ccccc1)c1ccccc1` was inactive: 1.37%; that for `CC(=O)Nc1ccc([As](=O)(O)O)cc1` was inactive: -2.51%.
The value for `O=C(O)c1ccccc1[As](=O)(O)O` was inactive: 7.17%; that for `Cc1cc(SC(NC(=O)c2ccc(F)cc2)C(Cl)(Cl)Cl)ncn1` (stereo not given) was inactive: 4.09%.
In the case of `CCOP(=O)(Nc1ccccc1)OCC` it was inactive: -6.22%; in that of `CN(C(=O)Cc1ccc(Cl)c(Cl)c1)[C@H]1CCCC[C@@H]1N1CCCC1`, inactive: 6.77%; in that of `Cc1ccc(NP(=O)(Oc2ccccc2F)Oc2ccccc2F)nc1`, inactive: -10.6%.
Regarding `O=[N+]([O-])c1cc([N+](=O)[O-])c(CCN2CCOCC2)c([N+](=O)[O-])c1`, the inhibition was inactive: 7.52%.
On to `Nc1cccc2ccc([As](=O)(O)O)cc12`, for which the inhibition was inactive: -4.41%.
Take `CCN(N=Nc1nonc1N)c1nonc1N`: the inhibition is inactive: 6.26%.
As to `O=C(Nc1cc([As](=O)(O)O)ccc1O)c1ccccc1`, the inhibition was inactive: -12.9%.
As to `O=[N+]([O-])c1ncn(CCn2ncnc2[N+](=O)[O-])n1`, the inhibition is inactive: 7.8%.
For `CC(C)(C)C(=O)NC(Sc1ccncn1)C(Cl)(Cl)Cl` (stereo not given), the inhibition is inactive: -5%.
With `O=C(O)CNc1ccc([As](=O)(O)O)cc1`, the inhibition is inactive: -0.809%.
On to `O=[N+]([O-])c1cccc(NC2=NCC(CBr)S2)c1` (stereo not given), for which the inhibition was inactive: -3.96%.
